Shown are results outside the selection of hits, which stands elsewhere. Inconclusive results are not listed. Activity calls are given as the source filed them. Calls follow the shape of the dose curve; as a rule, active = well fitted inhibition curve with a large enough effect; inconclusive = small, poorly fitted or top-dose-only effect, or another doubt; inactive = no such curve, though single readings can be large or run the other way.
% is scaled to controls: 0 for no effect and ±100 for the full control effect.

The test has as its target DNA polymerase beta (Homo sapiens) (UniProt P06746). As to the kind of experiment: qHTS Assay for Inhibitors of DNA Polymerase Beta. To be noted: Pol beta primer extension/strand displacement, fluorescence kinetic; at 114 µM (top of the series). An excerpt:
The base excision repair system in human cells is a target for therapeutic modulation of the response to irradiation treatment and DNA-damaging drugs. A key enzyme in this system is the bi-functional DNA polymerase known as DNA polymerase Beta (Pol Beta). The following is a homogeneous kinetic assay to study the primer extension and strand-displacement reaction catalyzed by pol beta.
A stepwise description of the 1536-well assay is shown in next Table. Three microliters of reagents (buffer in column 3 and 4 as negative control and 10 nM Pol beta in columns 1, 2, and 5-48) was dispensed into 1,536-well black solid-bottomed plate. Compounds (23 nL) were transferred via Kalypsys pin tool equipped with 1536-pin array (10 nL slotted pins, V&P Scientific, San Diego, CA). The plates were incubated for 15 min at room temperature, and 1 uL substrate (50 nM final concentration) were added to start the reaction and immediately read at 0 min read on Viewlux reader. The plate were further incubated for 10 min at room temperature, and then read on Viewlux again. Throughout the screen, reagent bottle and all liquid lines were chilled and made light-tight to minimize reagent degradation. All screening operations were performed on a fully integrated robotic system (Kalypsys, San Diego, CA) containing one RX-130 and two RX-90 anthropomorphic robotic arms (Staubli, Duncan, SC). […]
Turning to `C=C(C)[C@@H]1CC[C@]2(C(=O)O)CC[C@]3(C)C(CCC4[C@@]5(C)CC[C@H](O)C(C)(C)C5CC[C@]43C)C12` (stereo partly specified), the activity change, negative = inhibition is inactive: 17.9%.

Values taken from PubChem BioAssay AID485314 (National Center for Advancing Translational Sciences (NCATS), 2010).
